SMILES strings stand for the structures. The list shows a part of the results, in another mix than the full data. Active and inactive are the calls of the source. Rule as the data show it: active = inhibition above about 40%.

Chains of the proteins cited; added tags and fusions are not shown.
UniProt Q07817, whole entry: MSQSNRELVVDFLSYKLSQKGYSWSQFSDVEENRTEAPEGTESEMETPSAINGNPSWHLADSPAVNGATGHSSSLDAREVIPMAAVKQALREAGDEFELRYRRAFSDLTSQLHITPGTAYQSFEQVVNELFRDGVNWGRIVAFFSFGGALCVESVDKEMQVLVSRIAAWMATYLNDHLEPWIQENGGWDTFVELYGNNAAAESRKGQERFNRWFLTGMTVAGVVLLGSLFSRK

The target of the test is Bcl-2-like protein 1 (Homo sapiens) (UniProt Q07817). As to the kind of experiment: inhibitors of Bim-Bcl-XL binding, primary screen, biochemical, multiplexed, bead flow cytometry, human Bcl-XL (AID 1007). As to conditions: Bim peptide-Bcl-XL binding, fluorescence, at 10 µM, stronger effect = higher value. (In general: Flow cytometry measures light scatter and fluorescence of single cells or particles in a stream.)
As usually defined, the inhibition is the relative decrease from the control value, in per cent. As for `COc1ccccc1OP(C)(=O)Nc1ccccc1` (centres undefined), the inhibition is inactive: -2%.
The result for `CP(=O)(Nc1ccccc1Br)Oc1ccccc1` (centres undefined) reads inactive: -3%; that for `CP(=S)(Nn1cnnc1)Oc1ccccc1` (centres undefined), inactive: -4%; that for `CP(=O)(NC(=O)Nc1ccccc1)Oc1ccccc1` (centres undefined), inactive: -4%.
For the compound `Cc1cc(C)cc(OP(C)(=O)Nc2ccc(SC(F)(F)F)cc2)c1` (centres undefined), the inhibition is inactive: 1%.
Next, `Cc1cccc(C)c1OP(C)(=O)Nc1ccc(SC(F)(F)F)cc1` (centres undefined): inactive: 10%.
Next, `CP(=O)(Oc1ccccc1)OC(c1ccccc1)C(F)(F)F` (centres undefined): inactive: 0%; `CP(=O)(Nc1ccccn1)Oc1ccc(Cl)cc1` (centres undefined): inactive: -3%; `CCOP(C)(=S)SCC(=O)NC(C)C(=O)O` (centres undefined): inactive: 0%.
The result for `CCOC(=O)c1ccc(NP(C)(=O)Oc2ccc(OC)cc2)cc1` (centres undefined) reads inactive: -12%.
In the case of `CCN(CC)CCCOC(=O)C(O)(c1ccccc1)c1ccccc1`, the inhibition is inactive: -4%.
For the compound `CC(C)(C)c1ccc(OP(C)(=O)Nc2ccc(SC(F)(F)F)cc2)cc1` (centres undefined), the inhibition is inactive: -3%.
On to `Cc1cccc(C)c1OP(C)(N)=O` (centres undefined), for which the inhibition was inactive: 1%.
The result for `O=[N+]([O-])c1ccc2c(c1)C=Nc1ccccc1O2` reads inactive: -3%; that for `COc1ccccc1OP(C)(=O)Nc1cc(Cl)ccc1C` (centres undefined), inactive: -2%; that for `COc1ccc(OP(C)(=O)Nc2cccc(F)c2)cc1` (centres undefined), inactive: 0%.
In the case of `Cc1cc(C)cc(OP(C)(N)=O)c1` (centres undefined), the inhibition is inactive: -1%.
On to `CCOC(=O)c1ccc(NP(C)(=O)Oc2ccccc2)cc1` (centres undefined), for which the inhibition was inactive: -5%.
Next, `COc1ccccc1OP(C)(=O)Nc1ccc(C)cc1` (centres undefined): inactive: 7%.
The result for `Cc1ccc(NP(C)(=O)Oc2ccccc2)c(C)c1` (centres undefined) reads inactive: 4%; that for `CC1=NCCc2c1[nH]c1ccccc21.O=[N+]([O-])c1cc([N+](=O)[O-])c(O)c([N+](=O)[O-])c1`, inactive: -1%; that for `Cc1cc(C)cc(OP(C)(=O)Nc2ccc(C)cc2C)c1` (centres undefined), inactive: 3%.
Next, `CCOC(=O)c1ccc(NP(C)(=O)Oc2cc(C)cc(C)c2)cc1` (centres undefined): inactive: -3%; `CP(=O)(Nc1cccc(Br)c1)Oc1ccccc1` (centres undefined): inactive: -2%.
Consider `Cc1cc(C)cc(OP(C)(=O)Nc2ccccn2)c1` (centres undefined), for which the inhibition was inactive: -6%.
`Cc1ccc(C)c(NP(C)(=O)Oc2ccccc2)c1` (centres undefined): the inhibition was inactive: 0%.
Regarding `O=[N+]([O-])c1cc([N+](=O)[O-])c(-n2nnc3ccccc32)c([N+](=O)[O-])c1`, the inhibition is inactive: -5%.
The result for `Cc1nc2ccc3ccccc3c2s1.O=[N+]([O-])c1cc([N+](=O)[O-])c(O)c([N+](=O)[O-])c1` reads inactive: 2%; that for `CP(=O)(Nc1ccc(SC(F)(F)F)cc1)Oc1ccccc1` (centres undefined), inactive: -9%; that for `CCCOc1ccc(NP(C)(=O)Oc2ccc(Cl)cc2)cc1` (centres undefined), inactive: 0%.
On to `CN1CCCCC1COC(=O)C1(O)c2ccccc2CCc2ccccc21` (centres undefined), for which the inhibition is inactive: -6%.
The result for `COc1ccccc1OP(C)(=O)Nc1c(C)cccc1C` (centres undefined) reads inactive: 0%.
The result for `COc1ccc(NP(C)(=O)Oc2ccccc2OC)cc1` (centres undefined) reads inactive: -2%.
The result for `CN(C)CCOC(=O)C(O)(c1ccccc1)C1CCCCC1` (centres undefined) reads inactive: -3%.
`COc1ccc(OP(C)(=O)Nc2cccc(Br)c2)cc1` (centres undefined): the inhibition is inactive: -8%.
Next, `O=[N+]([O-])c1cc([N+](=O)[O-])c(NCC2CCS(=O)(=O)C2)c([N+](=O)[O-])c1` (centres undefined): inactive: -2%; `CCOP(C)(=S)SCC(=O)NC(C)(CC)C(=O)O` (centres undefined): inactive: -6%.
As to `Cc1ccccc1NP(C)(=O)Nc1ccccc1C`, the inhibition is inactive: -5%.
Consider `CP(=O)(Nc1ccc2c(c1)OCCO2)Oc1ccccc1` (centres undefined), for which the inhibition is inactive: -1%.
Next, `CC(C)c1ccc(OP(C)(=O)Nc2ccc(SC(F)(F)F)cc2)cc1` (centres undefined): inactive: -19%; `CP(=O)(Nc1ccccc1F)Oc1ccccc1` (centres undefined): inactive: -2%; `O=C(OCCN1CCN(CCOCc2ccccc2)CC1)C(O)(c1ccccc1)c1ccccc1`: inactive: -4%.
Consider `COc1ccc(OP(C)(=O)Nc2ccc(SC(F)(F)F)cc2)cc1` (centres undefined), for which the inhibition is inactive: -2%.
The result for `CCOC(=O)c1ccc(NP(C)(=O)Oc2ccc(F)cc2)cc1` (centres undefined) reads inactive: -3%; that for `CP(=O)(Nc1ccccc1)Oc1ccc(F)cc1` (centres undefined), inactive: -2%; that for `CCN(CC)CCCOC(=O)C(O)(c1ccccc1)C1CCCCC1` (centres undefined), inactive: -5%.
Next, `COc1ccc(OP(C)(=O)Nc2ccccc2Br)cc1` (centres undefined): inactive: -6%; `COc1ccccc1OP(C)(=O)Nc1ccc(C)c(C)c1` (centres undefined): inactive: 0%; `Cc1cc(C)cc(OP(C)(=O)Nc2cccc(C(F)(F)F)c2)c1` (centres undefined): inactive: -1%.
`CP(=O)(OCCOc1ccccc1)OCCOc1ccccc1`: the inhibition was inactive: -2%.
Next, `CP(=O)(Nc1ccc(Cl)cc1Cl)Oc1ccccc1` (centres undefined): inactive: -4%.
Next, `Cc1nc2ccc3ccccc3c2o1.O=[N+]([O-])c1cc([N+](=O)[O-])c(O)c([N+](=O)[O-])c1`: inactive: 0%; `CN(C)CCOC(=O)C(O)(c1ccccc1)C1CCCC1` (centres undefined): inactive: -4%.
Next, `COc1ccc(OP(C)(=O)Nc2ccccn2)cc1` (centres undefined): inactive: -6%; `CCc1ccc(OP(C)(=O)O)cc1`: inactive: -2%.
In the case of `CP(=O)(Nc1ccccn1)Oc1ccccc1` (centres undefined), the inhibition is inactive: -4%.
Take `COc1ccccc1OP(C)(=O)Nc1ccc(C)cc1C` (centres undefined): the inhibition was inactive: 5%.
The result for `O=[N+]([O-])c1cc([N+](=O)[O-])c(Nc2ccccn2)c([N+](=O)[O-])c1` reads inactive: -5%; that for `Cc1c(NP(C)(=O)Oc2ccc(C(C)C)cc2)c(=O)n(-c2ccccc2)n1C` (centres undefined), inactive: -1%; that for `CP(=O)(Oc1ccccc1)N1CCOC1=O` (centres undefined), inactive: -3%.
The result for `CCc1ccc(OP(C)(=O)Nc2cccnc2)cc1` (centres undefined) reads inactive: -1%; that for `CCN(CC)CC(O)COC(=O)C(O)(c1ccccc1)C1CCCCC1` (centres undefined), inactive: -7%.
Next, `COc1ccc(OP(C)(=O)Nc2ccc(Br)cc2)cc1` (centres undefined): inactive: -5%; `CN(C)C(=O)c1c([N+](=O)[O-])cc([N+](=O)[O-])cc1[N+](=O)[O-]`: inactive: 0%; `CP(=O)(Nc1ccc(Cl)cc1)Oc1ccc(F)cc1` (centres undefined): inactive: -3%.
Regarding `CC(C)(C)c1ccc(OP(C)(=O)O)cc1`, the inhibition is inactive: 0%.
As for `COc1ccccc1OP(C)(=O)Nc1ccccc1Br` (centres undefined), the inhibition is inactive: -2%.
On to `CP(=O)(OC12CC3CC(CC(C3)C1)C2)OC12CC3CC(CC(C3)C1)C2`, for which the inhibition is inactive: -3%.
With `CCOC(=O)c1ccc(NP(C)(=O)Oc2ccc(Cl)cc2)cc1` (centres undefined), the inhibition was inactive: -6%.

These data come from PubChem BioAssay AID1007 (NMMLSC, 2008).
